The values that follow are results of earlier work, collected in patent publication US9487470B2, “4-((substituted phenyl) difluoromethyl) phenoxy carboxylic acid derivative, and preparation method and uses thereof” (Zhejiang Hisun Pharmaceutical Co., Ltd., priority 2012, dated 2016).

For the series the following is noted: reports of U.S. Pat. No. 4,058,552; Practical Pharmacy and Clinical Remedies, 2005, 8, 35-36; WO02/39983; cited from earlier work.

Take fenofibrate [reference compound]: the bioavailability result is “poor bioavailability”.
